{"source": "paper PMC4778748", "about": "(Bioorganic & medicinal chemistry, 2016)", "target": "T1, h5-LOX (Homo sapiens, UniProt P09917)", "T1 sequence (P09917 1-674)": "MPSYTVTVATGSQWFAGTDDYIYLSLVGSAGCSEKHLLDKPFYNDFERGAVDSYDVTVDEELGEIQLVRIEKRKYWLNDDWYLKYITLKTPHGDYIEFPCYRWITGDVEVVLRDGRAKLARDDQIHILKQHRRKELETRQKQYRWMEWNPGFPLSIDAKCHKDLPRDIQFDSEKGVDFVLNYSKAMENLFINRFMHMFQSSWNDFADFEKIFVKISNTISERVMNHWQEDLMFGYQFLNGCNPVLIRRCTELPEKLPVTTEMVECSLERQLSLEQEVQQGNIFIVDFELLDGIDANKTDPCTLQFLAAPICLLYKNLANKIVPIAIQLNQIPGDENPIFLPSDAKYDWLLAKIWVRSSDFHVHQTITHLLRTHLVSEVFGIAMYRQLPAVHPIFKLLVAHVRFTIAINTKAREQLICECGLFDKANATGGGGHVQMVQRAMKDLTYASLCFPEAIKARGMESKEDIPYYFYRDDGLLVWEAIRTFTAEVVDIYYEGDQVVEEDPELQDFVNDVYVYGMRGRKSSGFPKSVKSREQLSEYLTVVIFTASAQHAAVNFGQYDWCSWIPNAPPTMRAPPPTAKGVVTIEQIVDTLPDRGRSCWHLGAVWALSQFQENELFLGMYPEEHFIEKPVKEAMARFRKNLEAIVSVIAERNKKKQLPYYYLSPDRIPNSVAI", "test": "Selectivity assay", "format": "biochemical", "conditions": "tested at 20 µM inhibitor concentration", "data": [{"smiles": "Cc1ccc(O)c(-c2cc(-c3ccccc3C)[nH]n2)c1", "note": "[Compound 99089]", "values": [{"measurement": "selectivity for h12/15-LOX versus h5-LOX", "result": "greater than 30 fold"}]}]}
